Measured values from article PMC12574689, “Synthesis of novel SRPK1-targeting hybrid compounds incorporating antimetabolites for cancer therapy” (RSC Medicinal Chemistry, 2025).

The chains behind the UniProt entries cited, without tags or fusion partners.
UniProt P78362, whole entry: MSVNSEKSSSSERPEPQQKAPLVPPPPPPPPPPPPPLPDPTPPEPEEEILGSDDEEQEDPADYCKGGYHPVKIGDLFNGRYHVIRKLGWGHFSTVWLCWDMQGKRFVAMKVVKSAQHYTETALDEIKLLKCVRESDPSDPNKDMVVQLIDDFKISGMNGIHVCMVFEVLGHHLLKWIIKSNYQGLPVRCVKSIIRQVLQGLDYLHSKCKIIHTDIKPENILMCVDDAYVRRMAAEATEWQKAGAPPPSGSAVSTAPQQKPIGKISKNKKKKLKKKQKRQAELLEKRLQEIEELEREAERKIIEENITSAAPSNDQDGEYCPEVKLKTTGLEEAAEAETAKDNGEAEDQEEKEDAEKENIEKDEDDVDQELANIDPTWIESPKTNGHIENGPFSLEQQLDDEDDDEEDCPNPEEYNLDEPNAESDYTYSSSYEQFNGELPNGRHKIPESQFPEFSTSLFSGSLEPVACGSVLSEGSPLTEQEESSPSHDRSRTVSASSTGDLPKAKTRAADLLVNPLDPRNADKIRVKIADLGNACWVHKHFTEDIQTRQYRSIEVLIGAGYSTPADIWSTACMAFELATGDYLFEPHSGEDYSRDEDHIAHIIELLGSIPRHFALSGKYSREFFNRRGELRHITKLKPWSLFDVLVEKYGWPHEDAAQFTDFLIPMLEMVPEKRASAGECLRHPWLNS

Assays:
HepG2 = test: MTT viability assay, HepG2; settings: 48 h treatment, mean of three independent experiments
GST-SRPK2 = GST-SRPK2 (Homo sapiens, UniProt P78362); test: In vitro kinase assay, GST-SRPK2; settings: read-out: GST-SRPK2 (IC50); substrate GST-LBRNt(62–92), 25 μM ATP
HeLa = test: MTT viability assay, HeLa; settings: 48 h treatment, mean of three independent experiments
Caco2 = test: MTT viability assay, Caco2; settings: 48 h treatment, mean of three independent experiments
[1] = test system: primary intestinal subepithelial myofibroblasts (SEMFs); test: MTT viability assay, primary SEMFs; settings: 48 h treatment, mean of three independent experiments
HT-29 = test: MTT viability assay, HT-29; settings: HT-29, MTT, 48 h treatment, mean of three independent experiments
SRPK1 in HeLa cells = test: Immunofluorescence of SRPK1 subcellular localization
A549 = test: MTT viability assay, A549; settings: 48 h treatment, mean of three independent experiments
K562 = test: MTT viability assay, K562; settings: 48 h treatment, mean of three independent experiments

## CCc1cc2c(cc1-c1cc[nH]n1)C(C)(C)c1[nH]c3cc(C#N)ccc3c1C2=O
HepG2
  EC50: 16.7 µM
GST-SRPK2
  IC50: 4.1 µM
HeLa
  EC50: 8.6 µM
Caco2
  EC50: 14.8 µM
[1]
  EC50: 12.8 µM
HT-29
  EC50: 1.4 µM
SRPK1 in HeLa cells; 20 μM, 24 h
  effect on SRPK1 subcellular localization: did not affect the cytoplasmic localization of the kinase
SRPK1 in HeLa cells; co-treatment with 5-FU
  effect on SRPK1 nuclear accumulation in 5-FU-treated cells: prevented the nuclear accumulation of SRPK1
A549
  EC50: > 50 µM
K562
  EC50: 13.2 µM
